Values of other authors as cited in patent US10906946B2, “Thrombin inhibitors” (priority 2015, dated 2021).

Target: clot-bound thrombin (Homo sapiens, UniProt P00734)
Details: literature value (Berry et al. 1994); read-out: IC50 of inhibition of clot-bound thrombin; cited from earlier work

CC1CNc2c(cccc2S(=O)(=O)N[C@@H](CCCNC(=N)N)C(=O)N2CC[C@@H](C)C[C@@H]2C(=O)O)C1 (stereo partly shown) [argatroban]
IC50: 2.7 µM
